Earlier results as cited in patent US7294687B2, “Parenteral formulations of a peptide for the treatment of systemic lupus erythematosus” (TEVA Pharmaceutical Industries, Ltd., priority 2003, dated 2007).

Conditions: parenteral; cited from earlier work

hepta-substituted sulfobutylether β-cyclodextrin [CAPTISOL®]
safety when administered parenterally: safe
